Reference: US20200262813A1, “1,5,7-TRISUBSTITUTED ISOQUINOLINE DERIVATIVES, PREPARATION THEREOF, AND USE THEREOF IN MEDICINES” (SHANGHAI HAIYAN PHARMACEUTICAL TECHNOLOGY CO., LTD., priority 2016, published 2020)

The chains behind the UniProt entries cited, without tags or fusion partners.
UniProt Q15910, whole entry Y641F: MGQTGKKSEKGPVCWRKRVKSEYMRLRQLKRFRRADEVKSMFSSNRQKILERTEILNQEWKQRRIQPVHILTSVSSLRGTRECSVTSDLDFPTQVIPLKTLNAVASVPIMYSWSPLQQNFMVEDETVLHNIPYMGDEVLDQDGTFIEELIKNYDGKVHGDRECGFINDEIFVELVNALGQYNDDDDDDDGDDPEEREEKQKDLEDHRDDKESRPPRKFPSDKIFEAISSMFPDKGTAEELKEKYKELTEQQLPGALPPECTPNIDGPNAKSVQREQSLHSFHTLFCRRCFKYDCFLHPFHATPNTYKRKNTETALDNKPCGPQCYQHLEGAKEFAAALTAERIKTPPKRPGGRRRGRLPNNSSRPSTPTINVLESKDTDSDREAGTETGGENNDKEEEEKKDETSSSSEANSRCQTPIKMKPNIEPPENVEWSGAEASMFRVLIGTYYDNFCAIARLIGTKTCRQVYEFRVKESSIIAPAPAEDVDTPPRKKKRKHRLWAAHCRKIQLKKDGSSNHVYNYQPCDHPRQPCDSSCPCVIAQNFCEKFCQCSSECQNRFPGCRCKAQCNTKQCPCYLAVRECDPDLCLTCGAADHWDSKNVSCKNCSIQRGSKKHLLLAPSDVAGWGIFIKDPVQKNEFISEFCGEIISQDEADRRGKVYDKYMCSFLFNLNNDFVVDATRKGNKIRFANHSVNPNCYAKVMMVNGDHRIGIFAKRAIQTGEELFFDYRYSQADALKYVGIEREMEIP
UniProt Q6ZN18, whole entry partner: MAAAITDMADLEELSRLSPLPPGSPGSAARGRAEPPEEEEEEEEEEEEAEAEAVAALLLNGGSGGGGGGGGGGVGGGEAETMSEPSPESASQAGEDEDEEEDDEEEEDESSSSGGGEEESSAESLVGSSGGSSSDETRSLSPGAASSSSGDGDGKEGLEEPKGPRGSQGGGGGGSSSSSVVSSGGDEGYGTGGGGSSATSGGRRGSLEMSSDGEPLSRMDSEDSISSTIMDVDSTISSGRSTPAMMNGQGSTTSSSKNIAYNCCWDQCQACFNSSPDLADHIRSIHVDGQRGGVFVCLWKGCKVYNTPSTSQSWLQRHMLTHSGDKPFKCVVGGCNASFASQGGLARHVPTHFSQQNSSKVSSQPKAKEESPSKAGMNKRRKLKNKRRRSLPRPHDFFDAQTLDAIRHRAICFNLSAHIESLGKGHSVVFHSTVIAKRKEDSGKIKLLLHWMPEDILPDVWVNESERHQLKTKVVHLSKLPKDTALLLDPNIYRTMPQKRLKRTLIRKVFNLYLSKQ
UniProt O75530, whole entry partner: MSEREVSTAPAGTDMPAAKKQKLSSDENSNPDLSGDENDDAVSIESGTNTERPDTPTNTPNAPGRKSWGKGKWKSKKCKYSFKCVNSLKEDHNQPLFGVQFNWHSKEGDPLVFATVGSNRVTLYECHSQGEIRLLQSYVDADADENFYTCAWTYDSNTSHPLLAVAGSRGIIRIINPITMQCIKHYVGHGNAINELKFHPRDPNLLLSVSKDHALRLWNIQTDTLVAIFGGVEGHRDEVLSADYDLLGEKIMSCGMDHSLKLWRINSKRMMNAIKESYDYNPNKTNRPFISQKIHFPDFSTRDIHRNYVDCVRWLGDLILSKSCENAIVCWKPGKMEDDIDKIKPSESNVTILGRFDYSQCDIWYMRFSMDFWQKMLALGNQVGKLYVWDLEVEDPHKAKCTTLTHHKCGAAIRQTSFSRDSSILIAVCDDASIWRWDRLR
UniProt Q15022, whole entry partner: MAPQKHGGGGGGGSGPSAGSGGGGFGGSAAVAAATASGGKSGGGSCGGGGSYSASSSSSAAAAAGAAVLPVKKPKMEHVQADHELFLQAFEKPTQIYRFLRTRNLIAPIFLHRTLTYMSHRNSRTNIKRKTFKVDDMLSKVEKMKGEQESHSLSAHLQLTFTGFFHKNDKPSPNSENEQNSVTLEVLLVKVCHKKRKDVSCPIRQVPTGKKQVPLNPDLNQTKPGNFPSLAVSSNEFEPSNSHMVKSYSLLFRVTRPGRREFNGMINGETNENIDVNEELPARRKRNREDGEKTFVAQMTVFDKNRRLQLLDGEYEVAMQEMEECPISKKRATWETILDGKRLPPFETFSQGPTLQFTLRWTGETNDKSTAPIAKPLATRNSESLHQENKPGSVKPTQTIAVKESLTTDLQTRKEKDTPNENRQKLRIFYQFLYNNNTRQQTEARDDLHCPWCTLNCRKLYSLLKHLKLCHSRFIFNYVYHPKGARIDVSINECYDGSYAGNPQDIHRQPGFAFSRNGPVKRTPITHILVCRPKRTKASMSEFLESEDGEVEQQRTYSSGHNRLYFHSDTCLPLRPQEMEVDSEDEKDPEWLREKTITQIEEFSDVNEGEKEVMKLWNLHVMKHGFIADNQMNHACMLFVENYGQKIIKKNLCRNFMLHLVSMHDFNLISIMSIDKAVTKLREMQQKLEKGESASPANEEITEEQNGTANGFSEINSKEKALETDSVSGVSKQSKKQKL
UniProt Q09028, whole entry partner: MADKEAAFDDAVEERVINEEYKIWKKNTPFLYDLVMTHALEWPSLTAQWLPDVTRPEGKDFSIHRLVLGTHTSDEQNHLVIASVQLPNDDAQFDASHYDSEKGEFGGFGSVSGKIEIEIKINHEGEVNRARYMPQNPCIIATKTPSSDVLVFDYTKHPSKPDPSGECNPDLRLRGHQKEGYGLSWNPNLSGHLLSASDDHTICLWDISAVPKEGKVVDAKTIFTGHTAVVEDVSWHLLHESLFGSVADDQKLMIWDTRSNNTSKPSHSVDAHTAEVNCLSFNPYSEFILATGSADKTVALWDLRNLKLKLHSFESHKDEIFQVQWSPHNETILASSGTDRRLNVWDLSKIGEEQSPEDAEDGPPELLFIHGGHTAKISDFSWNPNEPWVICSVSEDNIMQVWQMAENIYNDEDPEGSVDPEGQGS

Assays:
[1] = target: Recombinant PRC2 (EZH2-Y641F) (Homo sapiens, UniProt Q15910, Y641F); assay: In vitro methyltransferase activity test (LANCE Ultra); conditions: read-out: EZH2 Y641F IC50, LANCE Ultra detection, 3 hours reaction;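 also: compounds tested as an 8-point threefold dilution series, fluorescence read after 1 h detection step at room temperature, IC50 derived from a four-parameter curve fit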
[2] = test system: Pfeiffer cells; assay: Cell proliferation test (cell counting kit-8, 6 days); conditions: read-out: Pfeiffer IC50, 6 days' growth

pIC50 [1]	Structure (SMILES)	pIC50 [2]
7.04	CCN(c1cc(-c2ccc(N3CCN(C)CC3)nc2)cc2c(NCc3c(C)cc(C)[nH]c3=O)nccc12)C1CCN(C(C)C)CC1	–
> 7.85	CCN(c1cc(-c2ccc(N3CCOCC3)nc2)cc2c(NCc3c(C)cc(C)[nH]c3=O)nccc12)[C@H]1CC[C@@H](N(C)C)CC1	6.16
7.13	CCN(c1cc(Cl)cc2c(NCc3c(C)cc(C)[nH]c3=O)nccc12)[C@H]1CC[C@H](N(C)C)CC1	6.23
8.00	CCN(c1cc(-c2ccc(N3CCN(C)CC3)nc2)cc2c(NCc3c(C)cc(C)[nH]c3=O)nccc12)[C@H]1CC[C@H](N(C)C)CC1	6.11
7.46	CCN(c1cc(-c2cnc(N3CCN(C)CC3)nc2)cc2c(NCc3c(C)cc(C)[nH]c3=O)nccc12)[C@H]1CC[C@H](N(C)C)CC1	6.37
7.17	CCN(c1cc(-c2ccc(N3CCN(C)CC3)cc2)cc2c(NCc3c(C)cc(C)[nH]c3=O)nccc12)[C@H]1CC[C@H](N(C)C)CC1	6.24

The remaining lines, values behind:

Structure (SMILES)	pIC50 [1]	pIC50 [2]
CCN(c1cc(Cl)cc2c(NCc3c(OC)cc(C)[nH]c3=O)nccc12)[C@H]1CC[C@@H](N(C)C)CC1	8.10	6.22
CCN(c1cc(-c2ccc(N3CCN(C)CC3)nc2)cc2c(NCc3c(C)cc(C)[nH]c3=O)nccc12)C1CCC(N(C)C)CC1 (stereo not shown)	> 7.85	6.39
CCN(c1cc(C(C)C)cc2c(NCc3c(C)cc(C)[nH]c3=O)nccc12)C1CCC(N(C)C)CC1 (single isomer, unassigned) [Z-213]	6.94	6.16
CCN(c1cc(Cl)cc2c(NCc3c(C)cc(C)[nH]c3=O)nccc12)[C@H]1CC[C@@H](N2CC(OC)C2)CC1	7.21	6.45
CCN(c1cc(-c2ccc(OCCOC)cc2)cc2c(NCc3c(C)cc(C)[nH]c3=O)nccc12)C1CCC(N(C)C)CC1 (stereo not shown)	7.24	–
CCN(c1cc(-c2ccc(N3CCN(C)CC3)nc2)cc2c(NCc3c(C)cc(C)[nH]c3=O)nccc12)[C@H]1CC[C@H](O)CC1	7.02	6.13
CCN(c1cc(C(C)C)cc2c(NCc3c(C)cc(C)[nH]c3=O)nccc12)C1CCC(N(C)C)CC1 (single isomer, unassigned) [Z-210]	6.71	6.47
CCN(c1cc(-c2ccc(N3CCOCC3)nc2)cc2c(NCc3c(C)cc(C)[nH]c3=O)nccc12)[C@H]1CC[C@H](N(C)C)CC1	7.46	6.20
CCN(c1cc(-c2ccc(N3CCN(C)CC3)nc2)cc2c(NCc3c(C)cc(C)[nH]c3=O)nccc12)[C@H]1CC[C@@H](O)CC1	7.49	6.99
CCN(c1cc(-c2cnc(N3CCN(C)CC3)nc2)cc2c(NCc3c(C)cc(C)[nH]c3=O)nccc12)[C@H]1CC[C@@H](N(C)C)CC1	> 8.30	–
CCN(c1cc(-c2cnc(CN3CCN(C)CC3)c(F)c2)cc2c(NCc3c(C)cc(C)[nH]c3=O)nccc12)[C@H]1CC[C@H](N(C)C)CC1	8.00	6.35
CCN(c1cc(-c2ccc(N3CCN(C)CC3)nc2)cc2c(NCc3c(C)cc(C)[nH]c3=O)nccc12)[C@H]1CC[C@@H](N(C)C)CC1	7.96	6.50
CCN(c1cc(Cl)cc2c(NCc3c(OC)cc(C)[nH]c3=O)nccc12)[C@H]1CC[C@H](N(C)C)CC1	7.43	7.02
CCN(c1cc(-c2cccnc2)cc2c(NCc3c(C)cc(C)[nH]c3=O)nccc12)C1CCC(N(C)C)CC1 (stereo not shown)	7.77	6.32

pIC50: −log10 of the molar value.
